# Species: Ovis aries
# Test: Potency index, ratio of combretastatin A-4 IC50 to compound IC50 for inhibition of sheep brain tubulin polymerization
smiles,measurement,value
C=C(c1ccc(OC(F)F)c(N)c1)c1cc(OC)c(OC)c(OC)c1,Ratio IC50,5
